From ChEMBL document CHEMBL1268900, “Discovery of 2-aminoimidazopyridine adenosine A(2A) receptor antagonists” (Bioorg Med Chem Lett, 2010)

Target: Adenosine receptor A2a (Homo sapiens, UniProt P29274)
Test: Displacement of [3H]SCH58261 from human recombinant A2A receptor expressed in HEK293 cells
Assay type: cell-based

Compound | Ki
COCCCn1c(NC(=O)c2cccc(C#N)c2)nc2cc(C(=O)N3CCCC[C@@H]3C)cnc21 | 11 nM
COCCCn1c(NC(=O)c2cccc(C#N)c2)nc2cc(C(=O)N3CCCC[C@H]3C)cnc21 | 7.7 nM
